SMILES strings stand for the structures. pIC50: −log10 of the molar value.

Amino acid sequences for entries named in this document (tags omitted). A change or cut given only in a name is not applied to a line headed by its entry.
UniProt P14740: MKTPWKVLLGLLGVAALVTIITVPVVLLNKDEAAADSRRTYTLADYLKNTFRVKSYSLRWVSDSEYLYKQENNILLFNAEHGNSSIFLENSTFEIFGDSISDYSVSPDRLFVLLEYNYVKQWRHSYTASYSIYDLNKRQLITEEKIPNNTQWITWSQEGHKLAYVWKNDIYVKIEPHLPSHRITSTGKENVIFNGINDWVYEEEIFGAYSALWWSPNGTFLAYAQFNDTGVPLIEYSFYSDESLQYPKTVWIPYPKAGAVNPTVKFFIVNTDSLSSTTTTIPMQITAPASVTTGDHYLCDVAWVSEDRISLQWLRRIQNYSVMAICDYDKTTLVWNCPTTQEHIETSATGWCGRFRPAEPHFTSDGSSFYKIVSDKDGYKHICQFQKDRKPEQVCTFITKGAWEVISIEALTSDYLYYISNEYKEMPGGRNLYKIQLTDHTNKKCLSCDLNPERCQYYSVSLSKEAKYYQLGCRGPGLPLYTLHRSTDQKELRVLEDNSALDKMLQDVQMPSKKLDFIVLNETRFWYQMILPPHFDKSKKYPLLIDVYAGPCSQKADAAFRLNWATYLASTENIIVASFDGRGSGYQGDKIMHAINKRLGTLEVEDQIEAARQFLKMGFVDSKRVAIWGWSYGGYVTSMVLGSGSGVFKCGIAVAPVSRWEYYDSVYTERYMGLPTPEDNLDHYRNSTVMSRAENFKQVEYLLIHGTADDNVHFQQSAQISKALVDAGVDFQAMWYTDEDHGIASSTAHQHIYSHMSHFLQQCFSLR

The target of this test is dipeptidyl peptidase IV (Rattus norvegicus, UniProt P14740). In words: Measurement of dipeptidyl peptidase IV activity. It is filed as biochemical. The following applies: read-out: Dipeptidyl peptidase IV 50% inhibition activity value; enzyme partially purified from rat kidney homogenate; glycyl·prolyl·β-naphthylamide; pH 7.2, 37° C., 1 hour.

With `N[C@H]1CCCN(P(N)(=O)NC(=O)Nc2ccccc2)C1=O` (stereo partly shown), the pIC50 is 6.95.

The values are drawn from patent publication US7348318B2, “α-Amino-N-(diaminophosphinyl)lactam derivatives” (priority 2002, dated 2008).
